Experimental data from publication PMC10295947 (Biomolecules, 2023).

Test system: C57BL/6J mice
Settings: SR-17018 24 mg/kg i.p. 30 or 60 min after morphine; naloxone 2.5 mg/kg i.p. after 60 min

## C=CCN1CC[C@]23c4c5ccc(O)c4O[C@H]2C(=O)CC[C@@]3(O)[C@H]1C5
  Reversal of morphine-induced locomotor activity (given after morphine): fully antagonized morphine-induced locomotor activity
